This note sets out measurements from patent US20170247429A1, “BLOOD-BRAIN BARRIER DISRUPTING AGENTS AND USES THEREOF” (TEL HASHOMER MEDICAL RESEARCH INFRASTRUCTURE AND SERVICES …, priority 2014, published 2017).

Data set [1] deals with porcine brain endothelial cells monolayer (PBEC-M). The data set can be described thus: TEER measurement in the in-vitro BBB model (PBEC-M on Transwell inserts). It counts as cell-based. To be noted: for Max. BBB opening after 2 hrs (% of initial TEER): 0 indicates maximal opening of the BBB. As for the experimental part:
Primary cultures of porcine brain endothelial cells monolayer (PBEC-M) were used as a cellular barrier. In brief, cells were isolated from freshly collected porcine brains as described previously (Cooper et al., J Neurochem 2011, 116: 467-475). Culture purity was confirmed by specific staining for Von-Willebrand factor. PBEC were seeded at a density of 100,000 PBEC/cm^2 on a microporous membrane of a Transwell insert placed into a 12 well plates. Cells were cultured in plating medium for up to 3 days until reaching confluence. Plating medium was composed of newborn calf serum (10%), L-glutamine (2 mM), penicillin (100 units/ml), streptomycin (0.1 mg/ml) and gentamicin (0.1 mg/ml), all dissolved in Earl's Medium 199. The medium was replaced with a serum-free medium (assay medium) for an additional period of 24-48 hr. The assay medium consisted of L-glutamine (2 mM), penicillin (100 units/ml), streptomycin (0.1 mg/ml), gentamicin (0.1 mg/ml) and hydrocortisone (550 nM) in Dulbecco-modified Earls medium (DMEM) diluted 1:1 in Hams F12 medium. The integrity of this cellular barrier was determined by measuring TEER, which reflects the impedance to the passage of small ions through the physiological barrier and is recognized as one of the most accurate and sensitive measures of BBB integrity. A decrease in TEER reflects increase impermeability and a loss of barrier function. TEER of the filter insert was recorded using an Endohm chamber connected to an EVOM resistance meter. The effective TEER of each filter insert was calculated by subtracting the TEER of the microporous membrane without PBEC and is reported in units of Ωcm^2. For testing the effects of the different modified HSA compounds on TEER, they were diluted in assay medium at the desired concentrations, and added to the luminal (to mimic blood to brain passage) or abluminal (to mimic brain to blood passage) side of the inserts.
The following six modified HSA analogues were tested for their potency to disrupt the BBB in the in-vitro BBB model: HSA in which 85 carboxylic moieties were linked to glycine amide (Gly85-HSA); HSA in which 83 carboxylic moieties were linked to leucine amide (Leu83-HSA); HSA in which 80 carboxylic moieties were linked to ethylamine (EA-HSA); HSA in which 78 carboxylic moieties were linked to alanine amide (Ala78-HSA); HSA in which 79 carboxylic moieties were linked to propylamine (PA79-HSA); HSA in which 80 carboxylic moieties were linked to ethanol amine (E-Alco-HSA).
The effect of cationized-HSA analogues on the permeability of BBB was determined using an in-vitro BBB model as described in Example 1.

The test system is the same in data set [2]. As to the kind of experiment: In-vitro permeability of methotrexate across PBEC-M. The note with it: for permeability value for the penetration of MTX: inserts treated 2 hr at abluminal side with 14 μM, MTX 1 mM at luminal side, mean±SEM. In kind it is cell-based. As for the experimental part: To evaluate the ability of MTX to permeate BBB, the in-vitro BBB model described in Example 1 was employed. BBB inserts were treated for 2 hr at the abluminal side with EA derivatized HSA (14 μM; right column) or assay medium (left column) serving as control. MTX (1 mM) was placed at the luminal side, and the amount reached the abluminal side, in the presence and the absence of the EA-HSA, was quantitated by absorption at 305 nm, using ε305=22,700. Permeability values were calculated as previously described (Cohen-Kashi Malina et al., Brain Res 2009, 1284: 12-21). Results are presented as mean±SEM (n=3-5 inserts per treatment).
(Example 1). BBB inserts were treated for 2 hr at the abluminal side with 1,3-DAP-cationized-HSA (14 μM; right column) or assay medium (left column) serving as control. MTX (1 mM) was placed at the luminal side, and the amount reached the abluminal side, in the presence and the absence of the cationized-HSA was quantitated by absorption at 305 nm, using ε305=22,700. Permeability values were calculated as previously described (Cohen-Kashi Malina et al., ibid). Results are presented as mean±SEM values (n=3 inserts per treatment).

The subject of data set [3] is naïve (normal) rat brains. The data set can be described thus: MRI after intracranial-CED administration in naive rats (BBB disruption, hemorrhages, toxicity). To be noted: for tissue toxicity, T2-weighted MRI: 7 days following treatment; for tissue damage, T2-weighted MRI: immediately following treatment; for hemorrhages, gradient echo MRI: immediately post treatment.

For the next data set, the system named is glioma cell (CNS-1). As to the kind of experiment: Glioma cell viability in the 'brain cancer-related' in vitro BBB model. It counts as cell-based, rat. To be noted: PBEC-M treated with MTX in the presence of EA-HSA; within 48 hours. As for the experimental part:
The antineoplastic efficacy of EA-HSA against glioma cells located in the brain side further was validated in the “brain cancer-related” in vitro BBB model (FIGS. 1C and 3). PBEC-M were treated with MTX in the presence and absence of EA-HSA. Results are presented as mean±SEM (n=4 inserts per treatment). FIGS. 1B and 2 establish that EA-HSA enables MTX entry at a sufficient rate (FIG. 1B) resulting with 50% cell death in the abluminal located glioma cell, within 48 hours (FIG. 2; ***p<0.001).

For data set [4], the system named is tight-junction (TJ)-related membrane proteins (occludin, ZO-1), actin filaments in PBEC-M. The data set can be described thus: Immunocytochemistry of tight-junction related proteins and actin in PBEC-M. It counts as cell-based, porcine. As for the experimental part:
The mode of action by which EA-HSA induces BBB permeability was investigated in a set of immunocytochemistry studies. These studies were performed to identify alterations in tight-junction (TJ)-related membrane protein(s). The in-vitro BBB assay described in example 1 was employed. The assays were carried out at a stage when TEER has been reduced by EA-HSA, to a level permitting the paracellular (between adjacent cells) passage of impermeable substances.
In the immunocytochemistry studies, PBEC were grown on Transwell inserts for several days until confluence was reached (TEER>300 Ωcm^2). The cells were then fixed with ice cold 4% para-formaldehyde for 10 min at 25° C. and exposed to blocking solution (20% horse serum/0.1% Triton/phosphate-buffered saline (PBS)) for 2 hr. The PBEC were then incubated with mouse anti-occludin and rabbit anti ZO-1 antibodies at a 1:200 dilution, overnight at 4° C., washed with PBS and stained with a Cy3-labeled anti-rabbit or Alexa-Flour 488 anti-mouse secondary antibodies (1:200, 1 hr, RT). Nuclei were counterstained with Hoechst reagent for 20 sec. After mounting (Aqua Poly/Mount), the inserts were observed and photographed. Actin filaments were stained with Alexa Fluor 488-conjugated phalloidin (3 μl/insert, incubated together with the secondary antibody).

[5] abbreviates: PBEC-M incubated with EA-HSA 2 hr.

With “1,3-DAP-cationized-HSA: HSA whose Aspartic acid and Glutamic acid side chain residues were cationized with 1,3 diaminopropane-2HCl”, the “reduction of TEER value” in data set [1] (1 mg/ml, within a short period (FIG. 8A)) is listed as “about 80%”. Also, the “permeability value for the penetration of MTX” value in data set [2] is 6.48±0.23 ×10^−6 cm/second. In data set [3] (40 μg/rat CED, 30 min after treatment), the “BBB disruption, T1-weighted MRI” value was “BBB-disruption”. Moreover, in data set [3] (40 μg/rat CED), the “tissue toxicity, T2-weighted MRI” value is “lack of tissue toxicity”; the “tissue damage, T2-weighted MRI” value is “lack of tissue damage”; the “hemorrhages, gradient echo MRI” value was “lack of hemorrhages”.
On to “Ala78-HSA: HSA in which 78 carboxylic moieties were linked to alanine amide”, for which, in data set [1] (0.1 mg/ml), the “Time to reach max effect” value was 120 min and the “Max. BBB opening after 2 hrs (% of initial TEER)” value is on record as 78 % of initial TEER. Further, in data set [1] (1 mg/ml), the “T1/2 (min to reach half initial TEER)” value fell in the range of 5 to 15 min, the “Time to reach max effect” value was ~60 min and the “Max. BBB opening after 2 hrs (% of initial TEER)” value is 1 % of initial TEER.
For “E-Alco-HSA: HSA in which 80 carboxylic moieties were linked to ethanol amine”, in data set [1] (1 mg/ml), the “T1/2 (min to reach half initial TEER)” value worked out at 30 min, the “Time to reach max effect” value is reported as ~90 min and the “Max. BBB opening after 2 hrs (% of initial TEER)” value is given as 4 % of initial TEER.
In the case of “EA-HSA: HSA in which 80 carboxylic moieties were linked to ethylamine”, the “reduction of TEER value” in data set [1] (5.6 μM, within a short period (FIG. 1A)) is reported as 90-98%. In addition, in data set [1] (1 mg/ml), the “T1/2 (min to reach half initial TEER)” value lay in the range of 5 to 15 min, the “Time to reach max effect” value came out at 45 min and the “Max. BBB opening after 2 hrs (% of initial TEER)” value is reported as 0 % of initial TEER. The “increase of MTX permeability relative to control” value in data set [2] (14 μM, 2 hr, MTX 1 mM) was 47 fold. Besides, the “permeability value for the penetration of MTX” value in data set [2] was 11.74±1.3 ×10^−6 cm/second. Further, the “cell death in the abluminal located glioma cell” value with glioma cell (CNS-1) is 50%. In data set [4] (setting [5]), the “expression of Occludin” value is listed as “significantly altered” and the “expression pattern of ZO-1” value is on record as “only slightly altered”. Besides, in data set [4] (PBEC-M incubated with EA-HSA 2 hr (FIG. 4)), the actin filaments entry is listed as “disorganization”. Further, in data set [3] (20 μg/rat CED, 30 min after treatment), the “BBB disruption, T1-weighted MRI” value is reported as “BBB-disruption”. Further, in data set [3] (20 μg/rat CED), the “tissue toxicity, T2-weighted MRI” value was “lack of tissue toxicity”; the “tissue damage, T2-weighted MRI” value is given as “lack of”; the “hemorrhages, gradient echo MRI” value is given as “lack of hemorrhages”. Also, in data set [3] (single challenge, 20 μg/rat CED), the “duration of BBB disruption in vivo” value is given as “transient”.
Regarding “Gly85-HSA: HSA in which 85 carboxylic moieties were linked to glycine amide”, in data set [1] (0.1 mg/ml), the “T1/2 (min to reach half initial TEER)” value lay within 60 to 120 min, the “Time to reach max effect” value is reported as 120 min and the “Max. BBB opening after 2 hrs (% of initial TEER)” value is 15 % of initial TEER. Further, in data set [1] (1 mg/ml), the “T1/2 (min to reach half initial TEER)” value fell in the range of 5 to 15 min, the “Time to reach max effect” value was found to be 30 min and the “Max. BBB opening after 2 hrs (% of initial TEER)” value is listed as 0 % of initial TEER.
Take “HSA-Gly85-MTX3: HSA in which 85 carboxylic moieties were linked to glycine amide and 3 lysine side chains were linked to MTX”: in data set [3] (40 μg/rat CED, 30 minutes after administration (FIGS. 10A-10B)), the “BBB disruption, T1-weighted MRI” value is on record as “disrupted”.
As for “Leu83-HSA: HSA in which 83 carboxylic moieties were linked to leucine amide”, in data set [1] (0.1 mg/ml), the “T1/2 (min to reach half initial TEER)” value was in the range of 60 to 120 min, the “Time to reach max effect” value came to 120 min and the “Max. BBB opening after 2 hrs (% of initial TEER)” value is on record as 47 % of initial TEER. In data set [1] (1 mg/ml), the “T1/2 (min to reach half initial TEER)” value is 5 to 15 min, the “Time to reach max effect” value is 30 min and the “Max. BBB opening after 2 hrs (% of initial TEER)” value was 0 % of initial TEER.
Regarding “PA79-HSA: HSA in which 79 carboxylic moieties were linked to propylamine”, in data set [1] (0.1 mg/ml), the “Time to reach max effect” value was found to be 120 min and the “Max. BBB opening after 2 hrs (% of initial TEER)” value is 97 % of initial TEER. Moreover, in data set [1] (1 mg/ml), the “T1/2 (min to reach half initial TEER)” value came out at 30 min, the “Time to reach max effect” value is recorded as ~75 min and the “Max. BBB opening after 2 hrs (% of initial TEER)” value is 2 % of initial TEER.
